Ki data for 1 compound are collected here from ChEMBL document CHEMBL3797051 (Medchemcomm, 2016).

Each structure is given as a SMILES string.

The Ki is the dissociation constant of the complex between target and ligand, obtained from inhibition or displacement.

For this assay, the target named is T1, Histone deacetylase 8 (Homo sapiens, UniProt Q9BY41).
T1 sequence (Q9BY41 whole entry): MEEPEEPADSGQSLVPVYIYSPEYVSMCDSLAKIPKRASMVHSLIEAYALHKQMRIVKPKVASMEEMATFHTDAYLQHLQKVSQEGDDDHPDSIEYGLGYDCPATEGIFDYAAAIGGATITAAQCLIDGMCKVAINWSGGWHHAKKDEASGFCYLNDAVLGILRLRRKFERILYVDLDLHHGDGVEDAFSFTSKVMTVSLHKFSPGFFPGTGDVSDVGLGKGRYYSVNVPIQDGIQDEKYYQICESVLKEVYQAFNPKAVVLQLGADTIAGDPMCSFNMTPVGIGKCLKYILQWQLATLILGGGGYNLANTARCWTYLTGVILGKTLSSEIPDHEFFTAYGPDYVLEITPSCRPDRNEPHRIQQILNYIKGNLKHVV
The experiment in a line: Inhibition of recombinant human HDAC8 expressed in Escherichia coli assessed as hydrolase activity using fluorogenic AC-LGK-tfa-AMC as substrate measured after 60 mins by fluorescence analysis.

As for `O=C(CCCCCCC(=O)Nc1ccccc1)NO` [VORINOSTAT], the Ki came to 0.23 µM.
